For this assay, the target named is Dual specificity calcium/calmodulin-dependent 3',5'-cyclic nucleotide phosphodiesterase 1C (Human, UniProt Q14123). As to the kind of experiment: Inhibition Assay.

Protein sequences, listed by entry. Tags and fused reporters are not part of them.
UniProt Q14123, whole entry: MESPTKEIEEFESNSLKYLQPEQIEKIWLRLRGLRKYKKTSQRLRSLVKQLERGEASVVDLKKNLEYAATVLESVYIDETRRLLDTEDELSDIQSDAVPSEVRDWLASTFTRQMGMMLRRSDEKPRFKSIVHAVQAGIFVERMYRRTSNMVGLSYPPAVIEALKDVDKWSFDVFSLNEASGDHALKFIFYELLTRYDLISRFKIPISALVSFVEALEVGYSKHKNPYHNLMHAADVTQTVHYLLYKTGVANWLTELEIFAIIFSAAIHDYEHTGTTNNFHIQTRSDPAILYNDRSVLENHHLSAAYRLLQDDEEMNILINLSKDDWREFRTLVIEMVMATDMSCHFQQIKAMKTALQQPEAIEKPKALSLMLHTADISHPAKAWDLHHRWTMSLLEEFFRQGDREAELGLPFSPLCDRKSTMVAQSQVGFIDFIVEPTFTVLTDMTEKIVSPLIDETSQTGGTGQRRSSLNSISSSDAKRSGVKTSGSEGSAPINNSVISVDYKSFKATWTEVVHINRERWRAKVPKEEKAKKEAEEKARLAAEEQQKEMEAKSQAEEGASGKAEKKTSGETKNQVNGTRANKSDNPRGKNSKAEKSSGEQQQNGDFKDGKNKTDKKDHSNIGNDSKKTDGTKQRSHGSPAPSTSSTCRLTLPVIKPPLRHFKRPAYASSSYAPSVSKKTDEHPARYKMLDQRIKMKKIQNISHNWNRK

As a reminder, the IC50 is the midpoint of a concentration-inhibition curve. For `CC1=NN(C(C)C)/C(=C(/C=C/c2ccsc2C)NCc2cnn(C)c2)C1` [US11026923, Example 65], the IC50 is 16 nM.

For the origin of these results see BindingDB's records for patent US11026923 (H. Lundbeck, 2021).
